For experiment [1], the target named is Epidermal growth factor receptor (Homo sapiens, UniProt P00533).
The subject of experiment [2] is HN5. In words: cells. The settings on record: Homo sapiens, HN5, 72 h.

The chains behind the UniProt entries cited, without tags or fusion partners.
UniProt P00533, whole entry: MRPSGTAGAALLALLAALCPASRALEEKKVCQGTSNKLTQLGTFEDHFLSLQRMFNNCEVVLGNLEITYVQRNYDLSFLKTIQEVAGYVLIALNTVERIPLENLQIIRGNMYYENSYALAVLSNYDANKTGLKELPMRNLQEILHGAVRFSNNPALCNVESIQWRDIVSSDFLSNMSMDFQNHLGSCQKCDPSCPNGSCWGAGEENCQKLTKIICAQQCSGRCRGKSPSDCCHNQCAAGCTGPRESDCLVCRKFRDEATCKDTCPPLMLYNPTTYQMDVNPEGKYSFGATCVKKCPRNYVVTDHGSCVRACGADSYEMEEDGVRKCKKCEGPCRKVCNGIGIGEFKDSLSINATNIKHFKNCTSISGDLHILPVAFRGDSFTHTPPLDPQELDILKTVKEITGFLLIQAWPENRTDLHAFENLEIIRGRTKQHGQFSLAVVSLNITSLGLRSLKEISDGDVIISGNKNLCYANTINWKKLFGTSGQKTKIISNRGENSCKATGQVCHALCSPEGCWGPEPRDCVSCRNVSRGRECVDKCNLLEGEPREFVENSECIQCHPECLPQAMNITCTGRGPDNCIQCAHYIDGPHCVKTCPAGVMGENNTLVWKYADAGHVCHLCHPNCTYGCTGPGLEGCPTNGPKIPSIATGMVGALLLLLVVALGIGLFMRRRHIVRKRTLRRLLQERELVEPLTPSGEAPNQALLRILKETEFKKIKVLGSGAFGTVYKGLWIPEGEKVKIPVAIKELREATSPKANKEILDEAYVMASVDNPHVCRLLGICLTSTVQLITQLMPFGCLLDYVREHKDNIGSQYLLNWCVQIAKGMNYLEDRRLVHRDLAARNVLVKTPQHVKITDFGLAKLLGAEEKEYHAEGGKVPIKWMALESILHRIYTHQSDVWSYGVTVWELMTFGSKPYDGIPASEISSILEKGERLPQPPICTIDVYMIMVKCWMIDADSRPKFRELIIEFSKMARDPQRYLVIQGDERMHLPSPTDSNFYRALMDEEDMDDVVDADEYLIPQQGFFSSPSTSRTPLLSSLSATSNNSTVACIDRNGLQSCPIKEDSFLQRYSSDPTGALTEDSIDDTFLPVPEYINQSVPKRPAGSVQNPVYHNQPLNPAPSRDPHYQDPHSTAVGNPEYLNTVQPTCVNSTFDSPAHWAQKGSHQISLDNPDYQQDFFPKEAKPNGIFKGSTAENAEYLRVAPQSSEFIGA

As a reminder, the IC50 is the concentration at which inhibition is half-maximal. A high value points to weaker potency in that assay.

Take `CS(=O)(=O)CCNCc1ccc(-c2ccc3ncnc(Nc4ccc(OCc5ccccc5)c(Br)c4)c3c2)o1`: the IC50 in experiment [1] was 25 nM; in experiment [2] it was 260 nM.
